The text below walks through data of ChEMBL document CHEMBL1132700, “Design, synthesis, structure-activity relationships, and biological characterization of novel arylalkoxyphenylalkylamine sigma ligands as potential antipsychotic drugs” (J Med Chem, 1999).

Protein sequences, listed by entry. Tags and fused reporters are not part of them.
UniProt P61169, whole entry: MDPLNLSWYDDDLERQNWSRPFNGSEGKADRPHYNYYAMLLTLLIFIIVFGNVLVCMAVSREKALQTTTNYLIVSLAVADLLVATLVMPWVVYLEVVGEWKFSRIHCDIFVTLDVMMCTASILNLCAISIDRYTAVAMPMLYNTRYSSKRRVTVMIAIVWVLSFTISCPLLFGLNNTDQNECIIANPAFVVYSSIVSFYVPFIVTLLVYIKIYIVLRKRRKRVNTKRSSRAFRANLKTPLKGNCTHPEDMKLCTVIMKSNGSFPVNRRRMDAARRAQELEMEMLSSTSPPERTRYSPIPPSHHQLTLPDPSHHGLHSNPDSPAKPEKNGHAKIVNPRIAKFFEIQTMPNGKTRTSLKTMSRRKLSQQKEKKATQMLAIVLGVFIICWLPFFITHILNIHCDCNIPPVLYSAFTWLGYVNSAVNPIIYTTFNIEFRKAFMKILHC

Molecules are shown by their SMILES.

For this experiment, the target named is D(2) dopamine receptor (Rattus norvegicus, UniProt P61169). Briefly: Inhibitory concentration against radioligand [3H](-)-sulpiride binding to Dopamine receptor D2 in rat. In a few lines: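 Striatal membranes from male Wistar rats (200–250 g), homogenized in 50 mM Tris/HCl pH 7.7, washed by repeated 50000g spins. Incubated with 15 nM [3H]-sulpiride and at least five concentrations of unlabeled drug. Filtration on PEI-soaked glass-fiber filters, then scintillation counting. IC50 by nonlinear curve fitting, duplicate determinations.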

The compound `CN1CCc2cccc3c2[C@H]1Cc1ccc(O)c(O)c1-3` [APOMORPHINE] yielded an IC50 of 5.1 nM.
